In PubChem BioAssay (NCI):
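Assay format: 96-well plates, 48-hour exposure. GI50: concentration for 50% inhibition of growth. TGI denotes the concentration required for complete inhibition of growth.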

Columns and labels:
Assay in all cases: NCI anticancer screen, dose series, 48 h
[1] = system: NCI-H522 lung
[2] = system: SF-539 CNS
[3] = system: HCC-2998 colon
[4] = system: TK-10 renal
[5] = system: M14 melanoma
[6] = system: MDA-MB-231 breast
[7] = system: SN12C renal
[8] = system: K-562 leukemia
[9] = system: KM12 colon
[10] = system: HL-60(TB) leukemia
[11] = system: SK-OV-3 ovarian
[12] = system: UO-31 renal
[13] = system: SR leukemia
[14] = system: RPMI-8226 leukemia
[15] = system: SNB-75 CNS
[16] = system: UACC-62 melanoma
[17] = system: SK-MEL-28 melanoma
[18] = system: CCRF-CEM leukemia
[19] = system: NCI-H460 lung
[20] = system: ACHN renal
[21] = system: MDA-MB-435
[22] = system: MALME-3M melanoma
[23] = system: EKVX NSCLC
[24] = system: SNB-19 CNS
[25] = system: OVCAR-5 ovarian
[26] = system: BT-549 breast
[27] = system: MDA-N
[28] = system: SK-MEL-2 melanoma
[29] = system: HT29 colon
[30] = system: OVCAR-3 ovarian
[31] = system: T-47D breast
[32] = system: NCI-H23 lung
[33] = system: NCI-H322M lung
[34] = system: HCT-116 colon
[35] = system: HOP-62 NSCLC
[36] = system: DU-145 prostate
[37] = system: MCF7 breast
[38] = system: NCI-H226 lung
[39] = system: U251 CNS
[40] = system: A498 renal
[41] = system: MOLT-4 leukemia
[42] = system: HS 578T breast
[43] = system: LOX IMVI melanoma
[44] = system: HCT-15 colon
[45] = system: UACC-257 melanoma
[46] = system: RXF 393 renal

Structure (SMILES): CCOP(C)(=O)OC(C(F)(F)F)C(F)(F)F (configuration not stated)
- GI50 [1]: > 100 µM
- TGI [1]: > 100 µM
- GI50 [2]: > 100 µM
- TGI [2]: > 100 µM
- GI50 [3]: > 100 µM
- TGI [3]: > 100 µM
- GI50 [4]: > 100 µM
- TGI [4]: > 100 µM
- GI50 [5]: > 100 µM
- TGI [5]: > 100 µM
- GI50 [6]: > 100 µM
- TGI [6]: > 100 µM
- GI50 [7]: > 100 µM
- TGI [7]: > 100 µM
- GI50 [8]: > 100 µM
- TGI [8]: > 100 µM
- GI50 [9]: > 100 µM
- TGI [9]: > 100 µM
- GI50 [10]: > 100 µM
- TGI [10]: > 100 µM
- GI50 [11]: > 100 µM
- TGI [11]: > 100 µM
- GI50 [12]: > 100 µM
- TGI [12]: > 100 µM
- GI50 [13]: > 100 µM
- TGI [13]: > 100 µM
- GI50 [14]: > 100 µM
- TGI [14]: > 100 µM
- GI50 [15]: > 100 µM
- TGI [15]: > 100 µM
- GI50 [16]: > 100 µM
- TGI [16]: > 100 µM
- GI50 [17]: > 100 µM
- TGI [17]: > 100 µM
- GI50 [18]: > 100 µM
- TGI [18]: > 100 µM
- GI50 [19]: > 100 µM
- TGI [19]: > 100 µM
- GI50 [20]: > 100 µM
- TGI [20]: > 100 µM
- GI50 [21]: > 100 µM
- TGI [21]: > 100 µM
- GI50 [22]: > 100 µM
- TGI [22]: > 100 µM
- GI50 [23]: > 100 µM
- TGI [23]: > 100 µM
- GI50 [24]: > 100 µM
- TGI [24]: > 100 µM
- GI50 [25]: > 100 µM
- TGI [25]: > 100 µM
- GI50 [26]: > 100 µM
- TGI [26]: > 100 µM
- GI50 [27]: > 100 µM
- TGI [27]: > 100 µM
- GI50 [28]: > 100 µM
- TGI [28]: > 100 µM
- GI50 [29]: > 100 µM
- TGI [29]: > 100 µM
- GI50 [30]: > 100 µM
- TGI [30]: > 100 µM
- GI50 [31]: > 100 µM
- TGI [31]: > 100 µM
- GI50 [32]: > 100 µM
- TGI [32]: > 100 µM
- GI50 [33]: > 100 µM
- TGI [33]: > 100 µM
- GI50 [34]: > 100 µM
- TGI [34]: > 100 µM
- GI50 [35]: > 100 µM
- TGI [35]: > 100 µM
- GI50 [36]: > 100 µM
- TGI [36]: > 100 µM
- GI50 [37]: > 100 µM
- TGI [37]: > 100 µM
- GI50 [38]: > 100 µM
- TGI [38]: > 100 µM
- GI50 [39]: > 100 µM
- TGI [39]: > 100 µM
- GI50 [40]: > 100 µM
- TGI [40]: > 100 µM
- GI50 [41]: > 100 µM
- TGI [41]: > 100 µM
- GI50 [42]: > 100 µM
- TGI [42]: > 100 µM
- GI50 [43]: > 100 µM
- TGI [43]: > 100 µM
- GI50 [44]: > 100 µM
- TGI [44]: > 100 µM
- GI50 [45]: > 100 µM
- TGI [45]: > 100 µM
- GI50 [46]: > 100 µM
- TGI [46]: > 100 µM
